How the values were obtained:
JAK1 = JAK1 (Homo sapiens (Human), UniProt P23458); test: Biochemical JAK kinase assay (LanthaScreen), JAK1
Description: (§1) A panel of four LanthaScreen JAK biochemical assays (JAK1, 2, 3 and Tyk2) were carried in a common kinase reaction buffer (50 mM HEPES, pH 7.5, 0.01% Brij-35, 10 mM MgCl2, and 1 mM EGTA). Recombinant GST-tagged JAK enzymes and a GFP-tagged STAT1 peptide substrate were obtained from Life Technologies.
(§2) Serially diluted compounds were pre-incubated with each of the four JAK enzymes and the substrate in white 384-well microplates (Corning) at ambient temperature for 1 h. ATP was subsequently added to initiate the kinase reactions in 10 μL total volume, with 1% DMSO. The final enzyme concentrations for JAK1, 2, 3 and Tyk2 are 4.2 nM, 0.1 nM, 1 nM, and 0.25 nM respectively; the corresponding Km ATP concentrations used are 25 μM, 3 μM, 1.6 μM, and 10 μM; while the substrate concentration is 200 nM for all four assays. Kinase reactions were allowed to proceed for 1 hour at ambient temperature before a 10 μL preparation of EDTA (10 mM final concentration) and Tb-anti-pSTAT1 (pTyr701) antibody (Life Technologies, 2 nM final concentration) in TR-FRET dilution buffer (Life Technologies) was added. The plates were allowed to incubate at ambient temperature for 1 h before being read on the EnVision reader (Perkin Elmer). Emission ratio signals (520 nm/495 nm) were recorded and utilized to calculate the percent inhibition values based on DMSO and background controls.
(§3) For dose-response analysis, percent inhibition data were plotted vs. compound concentrations, and IC50 values were determined from a 4-parameter robust fit model with the Prism software (GraphPad Software). Results were expressed as pIC50 (negative logarithm of IC50) and subsequently converted to pKi (negative logarithm of dissociation constant, Ki) using the Cheng-Prusoff equation.
(§4) Test compounds having a lower Ki value or higher pKi value in the four JAK assays show greater inhibition of JAK activity.

By UniProt entry, the sequences of proteins in these tests, tags left out.
UniProt P23458, whole entry: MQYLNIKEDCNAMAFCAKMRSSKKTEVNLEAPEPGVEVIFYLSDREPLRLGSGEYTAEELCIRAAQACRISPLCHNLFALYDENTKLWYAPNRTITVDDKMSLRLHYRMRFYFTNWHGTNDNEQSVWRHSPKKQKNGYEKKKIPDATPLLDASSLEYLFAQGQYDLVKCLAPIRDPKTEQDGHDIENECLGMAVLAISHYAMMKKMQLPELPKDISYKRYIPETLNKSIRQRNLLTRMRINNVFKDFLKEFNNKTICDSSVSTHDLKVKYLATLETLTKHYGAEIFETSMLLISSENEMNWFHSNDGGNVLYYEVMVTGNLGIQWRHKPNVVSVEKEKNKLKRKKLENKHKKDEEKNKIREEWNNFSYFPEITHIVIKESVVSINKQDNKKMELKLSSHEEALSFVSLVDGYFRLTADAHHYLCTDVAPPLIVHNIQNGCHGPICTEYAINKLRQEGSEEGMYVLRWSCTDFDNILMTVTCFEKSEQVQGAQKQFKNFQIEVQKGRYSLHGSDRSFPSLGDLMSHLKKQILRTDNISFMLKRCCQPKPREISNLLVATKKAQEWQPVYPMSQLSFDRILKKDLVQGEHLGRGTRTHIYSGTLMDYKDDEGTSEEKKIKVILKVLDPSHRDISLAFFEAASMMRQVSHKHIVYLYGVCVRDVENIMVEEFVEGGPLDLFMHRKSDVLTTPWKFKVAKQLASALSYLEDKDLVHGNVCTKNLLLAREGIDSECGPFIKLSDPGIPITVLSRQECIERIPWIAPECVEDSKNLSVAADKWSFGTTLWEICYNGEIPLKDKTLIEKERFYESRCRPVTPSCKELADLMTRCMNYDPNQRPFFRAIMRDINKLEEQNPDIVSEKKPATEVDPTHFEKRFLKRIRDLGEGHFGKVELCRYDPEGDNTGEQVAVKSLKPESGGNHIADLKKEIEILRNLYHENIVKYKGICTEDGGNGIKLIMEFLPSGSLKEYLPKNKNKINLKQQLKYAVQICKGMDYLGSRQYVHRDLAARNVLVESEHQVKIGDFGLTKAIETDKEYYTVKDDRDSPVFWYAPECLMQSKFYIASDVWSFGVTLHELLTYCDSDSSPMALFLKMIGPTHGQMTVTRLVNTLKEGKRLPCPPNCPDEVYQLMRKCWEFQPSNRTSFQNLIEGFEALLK
UniProt O60674, whole entry: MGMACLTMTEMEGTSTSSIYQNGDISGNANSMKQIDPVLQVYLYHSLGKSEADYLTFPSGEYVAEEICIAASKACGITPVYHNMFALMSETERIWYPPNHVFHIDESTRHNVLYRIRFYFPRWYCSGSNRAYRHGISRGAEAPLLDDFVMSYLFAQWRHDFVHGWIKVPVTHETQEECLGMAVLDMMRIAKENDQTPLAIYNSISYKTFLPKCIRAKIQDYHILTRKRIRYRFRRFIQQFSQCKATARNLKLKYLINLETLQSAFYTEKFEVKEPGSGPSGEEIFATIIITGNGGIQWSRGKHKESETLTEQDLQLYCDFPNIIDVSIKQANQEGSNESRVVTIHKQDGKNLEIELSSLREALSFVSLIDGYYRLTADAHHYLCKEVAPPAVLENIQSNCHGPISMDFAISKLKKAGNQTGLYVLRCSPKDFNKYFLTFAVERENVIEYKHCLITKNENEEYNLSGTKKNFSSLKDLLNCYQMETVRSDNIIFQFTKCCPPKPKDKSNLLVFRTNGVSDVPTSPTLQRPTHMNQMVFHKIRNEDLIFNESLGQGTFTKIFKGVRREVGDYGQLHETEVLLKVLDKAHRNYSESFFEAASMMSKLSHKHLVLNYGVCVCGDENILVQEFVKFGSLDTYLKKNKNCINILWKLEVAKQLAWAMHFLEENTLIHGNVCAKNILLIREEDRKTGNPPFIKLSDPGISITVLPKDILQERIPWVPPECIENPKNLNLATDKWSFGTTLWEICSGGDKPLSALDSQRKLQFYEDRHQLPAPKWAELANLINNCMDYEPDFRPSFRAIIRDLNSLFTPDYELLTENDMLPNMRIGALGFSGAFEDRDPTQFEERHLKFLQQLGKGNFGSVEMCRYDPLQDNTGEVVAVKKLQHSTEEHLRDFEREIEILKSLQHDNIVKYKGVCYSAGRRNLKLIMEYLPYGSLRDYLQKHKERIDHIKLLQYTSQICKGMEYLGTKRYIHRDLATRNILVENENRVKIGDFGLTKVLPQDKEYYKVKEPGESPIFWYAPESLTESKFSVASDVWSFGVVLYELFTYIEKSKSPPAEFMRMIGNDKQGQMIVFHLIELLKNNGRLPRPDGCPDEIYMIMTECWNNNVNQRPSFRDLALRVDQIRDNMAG

[1] = system: IL-13 induced STAT6 phosphorylation in BEAS-2B human lung epithelial cells; test: Cellular JAKI potency assay (BEAS-2B); conditions: BEAS-2B cells
Description: The JAKI cellular potency assay was carried out by measuring inhibition of interleukin-13 (IL-13, R&D Systems) induced STAT6 phosphorylation in BEAS-2B human lung epithelial cells (ATCC). BEAS-2B cells were grown at 37° C. in a 5% CO2 humidified incubator in 50% DMEM/50% F-12 medium (Life Technologies) supplemented with 10% FBS (Hyclone), 100 U/mL penicillin, 100 μg/mL streptomycin (Life Technologies), and 2 mM GlutaMAX (Life Technologies). On day 1 of the assay, cells were seeded at a 7,500 cells/well density in white poly-D-lysine-coated 384-well plates (Corning) with 25 μL medium and were allowed to adhere overnight in the incubator. On day 2 of the assay, the medium was removed and replaced with 12 μL of assay buffer (Hank's Balanced Salt Solution/HBSS, 25 mM HEPES, and 1 mg/ml bovine serum albumin/BSA) containing dose-responses of test compounds. Compounds were serially diluted in DMSO and then diluted another 1000-fold in media to bring the final DMSO concentration to 0.1%. Cells were incubated with test compounds at 37° C. for 1 h and followed by the addition of 12 μl of pre-warmed IL-13 (80 ng/mL in assay buffer) for stimulation. After incubating at 37° C. for 30 min, the assay buffer (containing compound and IL-13) was removed, and 10 μL of cell lysis buffer (25 mM HEPES, 0.1% SDS, 1% NP-40, 5 mM MgCl2, 1.3 mM EDTA, 1 mM EGTA, supplemented with Complete Ultra mini protease inhibitors and PhosSTOP from Roche Diagnostics). The plates were shaken at ambient temperature for 30 min before the addition of detection reagents. Levels of pSTAT6 were measured using the AlphaLISA SureFire Ultra pSTAT6 (Tyr641) assay kit from PerkinElmer. For dose-response analysis, percent inhibition data were plotted vs. compound concentrations, and IC50 values were determined from a 4-parameter robust fit model with the Graphpad Prism software. Results are expressed as the negative logarithm of the IC50 value, pIC50.
Test compounds having a lower IC50 value or higher pIC50 value in this assay show greater inhibition of IL-13 induced STAT6 phosphorylation.

JAK2 = JAK2 (Homo sapiens (Human), UniProt O60674); test: Biochemical JAK kinase assay (LanthaScreen), JAK2
Description: as §1, §2, §3, §4

Compound	JAK1 pKi (JAK1)	BEAS2B pIC50 [1]	JAK2 pKi (JAK2)
CCc1cc(O)ccc1-c1ccc2c(-c3nc(C4=CCNC4)c(Br)[nH]3)n[nH]c2c1F	C (C represents a pKi value between 8 (included) and 9 (Ki between 10 nM and 1 nM))	C (C represents a pIC50 value between 7 (included) and 7.5)	B (B represents a pKi value between 9 (included) and 10 (Ki between 1 nM and 0.1 nM))
CCc1cc(O)ccc1-c1ccc2c(-c3nc(C4=C[C@@H](C)N[C@H](C)C4)c[nH]3)n[nH]c2c1F (relative stereo)	B (B represents a pKi value between 9 (included) and 10 (Ki between 1 nM and 0.1 nM))	C (C represents a pIC50 value between 7 (included) and 7.5)	B (B represents a pKi value between 9 (included) and 10 (Ki between 1 nM and 0.1 nM))
CCc1cc(O)ccc1-c1ccc2c(-c3nc(C4=C[C@@H](C)N[C@@H](C)C4)c[nH]3)n[nH]c2c1F (relative stereo)	B (B represents a pKi value between 9 (included) and 10 (Ki between 1 nM and 0.1 nM))	C (C represents a pIC50 value between 7 (included) and 7.5)	B (B represents a pKi value between 9 (included) and 10 (Ki between 1 nM and 0.1 nM))
CCc1cc(O)ccc1-c1ccc2c(-c3nc(C4=C[C@@H](C)N[C@H](C)C4)c[nH]3)n[nH]c2c1 (relative stereo)	B (B represents a pKi value between 9 (included) and 10 (Ki between 1 nM and 0.1 nM))	C (C represents a pIC50 value between 7 (included) and 7.5)	B (B represents a pKi value between 9 (included) and 10 (Ki between 1 nM and 0.1 nM))

From patent US20240092758A1, “IMIDAZOLO INDAZOLE COMPOUNDS AS JAK INHIBITORS” (Theravance Biopharma R&D IP, LLC, priority 2021, published 2024)
